Data published in ChEMBL document CHEMBL1158499, “Synthesis and antidepressant activity of optical isomers of 2-(4-benzylpiperazin-1-yl)-1-(5-chloro-6-methoxynaphthalen-2-yl) propan-1-ol (SIPI5056)” (Bioorg Med Chem Lett, 2010).

Protein sequences, listed by entry. Tags and fused reporters are not part of them.
UniProt P23977, whole entry: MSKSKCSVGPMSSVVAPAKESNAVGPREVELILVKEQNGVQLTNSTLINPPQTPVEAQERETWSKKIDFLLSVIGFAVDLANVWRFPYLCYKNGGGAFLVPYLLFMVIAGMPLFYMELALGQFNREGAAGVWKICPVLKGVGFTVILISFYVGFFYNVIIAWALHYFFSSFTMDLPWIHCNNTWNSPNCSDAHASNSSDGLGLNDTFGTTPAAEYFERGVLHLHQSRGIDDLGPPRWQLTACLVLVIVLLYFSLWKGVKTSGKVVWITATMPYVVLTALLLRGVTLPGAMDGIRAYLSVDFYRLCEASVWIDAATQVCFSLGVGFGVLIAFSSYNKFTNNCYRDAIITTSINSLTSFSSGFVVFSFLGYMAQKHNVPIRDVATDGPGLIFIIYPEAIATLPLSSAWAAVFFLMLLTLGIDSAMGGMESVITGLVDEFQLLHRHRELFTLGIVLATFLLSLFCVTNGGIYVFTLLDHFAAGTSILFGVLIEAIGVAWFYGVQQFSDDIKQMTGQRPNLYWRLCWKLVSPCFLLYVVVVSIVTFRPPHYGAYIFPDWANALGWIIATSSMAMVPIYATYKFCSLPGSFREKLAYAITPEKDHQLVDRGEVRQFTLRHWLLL
UniProt Q63380, whole entry: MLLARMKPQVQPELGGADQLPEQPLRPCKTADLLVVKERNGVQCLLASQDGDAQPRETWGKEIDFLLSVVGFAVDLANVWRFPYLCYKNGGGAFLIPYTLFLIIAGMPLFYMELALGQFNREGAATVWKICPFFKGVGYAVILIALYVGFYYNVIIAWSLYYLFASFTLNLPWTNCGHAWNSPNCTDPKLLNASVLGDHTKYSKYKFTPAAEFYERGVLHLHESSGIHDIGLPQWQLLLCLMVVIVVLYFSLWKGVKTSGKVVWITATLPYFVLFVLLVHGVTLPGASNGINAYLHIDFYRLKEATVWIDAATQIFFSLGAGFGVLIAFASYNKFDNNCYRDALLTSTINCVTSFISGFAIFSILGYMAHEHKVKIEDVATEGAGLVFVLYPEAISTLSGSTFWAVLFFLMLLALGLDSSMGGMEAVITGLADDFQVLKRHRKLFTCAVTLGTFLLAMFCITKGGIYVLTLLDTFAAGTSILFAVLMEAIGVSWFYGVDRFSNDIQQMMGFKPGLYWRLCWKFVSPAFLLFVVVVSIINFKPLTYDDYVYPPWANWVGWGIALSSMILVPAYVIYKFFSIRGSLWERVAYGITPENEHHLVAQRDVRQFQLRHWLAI

Columns and labels:
[1] = biological target: Sodium-dependent dopamine transporter (Rattus norvegicus, UniProt P23977); assay: Inhibition of [3H]dopamine reuptake at rat brain frontal cortex dopamine transporter; format: tissue-based
Outline: (§1)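 Rat frontal cortex synaptosomes prepared at 4 °C: tissue homogenized in ice-cold 0.32 M sucrose, spun at 1500g for 10 min, and the supernatant spun at 20,000g for 30 min. The pellet was resuspended in buffer and protein measured. Synaptosomes were preincubated with compound 5 min at 37 °C, then given 300 nM [3H]-DA or [3H]-NA for 5 min at 37 °C. Uptake was stopped on ice and samples filtered and washed with artificial cerebral fluid before scintillation counting. Active uptake was taken as the 37 °C minus 0 °C difference.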

Transporter = Transporter (Rattus norvegicus, UniProt Q63380); assay: Inhibition of [3H]norepinephrine reuptake at rat brain frontal cortex norepinephrine transporter; format: tissue-based; outline: as §1

COc1ccc(C(CN(C)C)C2(O)CCCCC2)cc1 (configuration not stated) [VENLAFAXINE]
IC50 [1]: > 1000 µM | IC50 (Transporter): 1.4 µM
